In US20050002552A1, “Automated in vitro cellular imaging assays for micronuclei and other target objects” (Pfizer Inc, priority 2003, published 2005):

Test system: Chinese hamster ovary cells
Settings: 0.05 mcg/ml, 24 hours, Cytochalasin B protocol, independent duplicate wells, listed as mitomycin C

SMILES: CO[C@@]12[C@H](COC(N)=O)C3=C(C(=O)C(C)=C(N)C3=O)N1C[C@@H]1N[C@@H]12 [Mitomycin C]
- Auto MN % (micronuclei frequency, automated method of this invention) (automated scoring): 2.7%
- Manual MN % (micronuclei frequency, number of micronuclei divided by number of binucleated cells, manual scoring) (manual scoring): 3.8%
